Earlier results in patent publication US20130101628A1, “NOVEL VEGF MIMETIC PEPTIDE-BASED SCAFFOLDS FOR THERAPEUTIC ANGIOGENESIS AND METHODS FOR THEIR USE” (NORTHWESTERN UNIVERSITY, priority 2011, published 2013).

Details: in vivo; cited from earlier work

**Q.** For VEGF, which “retention time in tissue following injection” value is on record?
**A.** Its value is “at most, a few hours”.
